From ChEMBL document CHEMBL5053518, “1,5,6,7-Tetrahydro-4H-indazol-4-ones as human neutrophil elastase (HNE) inhibitors” (Bioorg Med Chem Lett, 2021) come the findings set out here.

The structures appear in SMILES notation.

The test has as its target T1, Neutrophil elastase (Homo sapiens, UniProt P08246).
T1 sequence (P08246 whole entry): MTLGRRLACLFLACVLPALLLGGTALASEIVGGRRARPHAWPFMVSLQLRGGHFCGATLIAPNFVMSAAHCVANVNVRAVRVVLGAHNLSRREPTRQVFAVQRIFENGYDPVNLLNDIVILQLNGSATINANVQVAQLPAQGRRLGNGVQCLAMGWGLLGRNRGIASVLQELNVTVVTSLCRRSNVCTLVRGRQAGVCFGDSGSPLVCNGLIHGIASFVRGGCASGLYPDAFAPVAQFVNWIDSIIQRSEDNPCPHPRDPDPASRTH
As to the kind of experiment: Inhibition of human neutrophil elastase.

Usually Ki stands for the equilibrium dissociation constant of an inhibitor or competing ligand from its target. A high value points to a looser hold on the target. Take `CC(C)(C)C(=O)Oc1ccc(S(=O)(=O)Nc2ccccc2C(=O)NCC(=O)O)cc1` [SIVELESTAT]: the Ki is 24 nM.
